Source: patent US20250352563A1, “Method and Use of Psilocybin in the Prevention and Treatment of Stroke” (Revive Therapeutics Ltd, priority 2022, published 2025)

Tested on: rat primary cortical neuronal culture
Assay: Glutamate neurotoxicity in primary cortical neuronal culture (MAP2 immunocytochemistry)
Details: Glutamate 100 μM; Psilocybin 0.1, 1, 10 μM; DIV10-DIV12; p<0.05, 1-Way ANOVA

## CN(C)CCc1c[nH]c2cccc(OP(=O)(O)O)c12 [Psilocybin, 4-phosphoryloxy-N,N-dimethyltryptamine]
  Glutamate-mediated reduction of MAP2 immunoreactivity: dose-dependently mitigated this response
